Source: ChEMBL document CHEMBL2440018 (J Med Chem, 2013)

By UniProt entry, the sequences of proteins in these tests, tags left out. Where a name states a change or a piece, a line headed by the entry shows the natural chain unless it says otherwise.
UniProt P08253: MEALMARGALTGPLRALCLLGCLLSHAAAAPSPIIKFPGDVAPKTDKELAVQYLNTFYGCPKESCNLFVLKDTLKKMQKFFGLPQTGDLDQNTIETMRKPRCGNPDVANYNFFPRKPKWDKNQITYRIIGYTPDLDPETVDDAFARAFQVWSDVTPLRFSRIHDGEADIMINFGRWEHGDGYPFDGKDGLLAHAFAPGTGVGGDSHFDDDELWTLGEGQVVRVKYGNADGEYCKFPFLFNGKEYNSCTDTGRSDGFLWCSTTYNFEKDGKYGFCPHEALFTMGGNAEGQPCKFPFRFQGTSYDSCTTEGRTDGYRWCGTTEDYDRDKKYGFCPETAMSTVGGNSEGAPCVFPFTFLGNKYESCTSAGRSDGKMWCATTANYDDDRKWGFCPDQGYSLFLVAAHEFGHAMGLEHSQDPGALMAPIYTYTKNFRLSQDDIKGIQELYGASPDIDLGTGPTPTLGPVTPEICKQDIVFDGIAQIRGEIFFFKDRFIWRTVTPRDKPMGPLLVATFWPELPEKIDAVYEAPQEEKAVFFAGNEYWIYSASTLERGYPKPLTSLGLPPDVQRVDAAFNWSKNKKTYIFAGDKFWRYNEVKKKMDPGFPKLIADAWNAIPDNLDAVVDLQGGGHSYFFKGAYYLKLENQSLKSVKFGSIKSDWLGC
UniProt P14780: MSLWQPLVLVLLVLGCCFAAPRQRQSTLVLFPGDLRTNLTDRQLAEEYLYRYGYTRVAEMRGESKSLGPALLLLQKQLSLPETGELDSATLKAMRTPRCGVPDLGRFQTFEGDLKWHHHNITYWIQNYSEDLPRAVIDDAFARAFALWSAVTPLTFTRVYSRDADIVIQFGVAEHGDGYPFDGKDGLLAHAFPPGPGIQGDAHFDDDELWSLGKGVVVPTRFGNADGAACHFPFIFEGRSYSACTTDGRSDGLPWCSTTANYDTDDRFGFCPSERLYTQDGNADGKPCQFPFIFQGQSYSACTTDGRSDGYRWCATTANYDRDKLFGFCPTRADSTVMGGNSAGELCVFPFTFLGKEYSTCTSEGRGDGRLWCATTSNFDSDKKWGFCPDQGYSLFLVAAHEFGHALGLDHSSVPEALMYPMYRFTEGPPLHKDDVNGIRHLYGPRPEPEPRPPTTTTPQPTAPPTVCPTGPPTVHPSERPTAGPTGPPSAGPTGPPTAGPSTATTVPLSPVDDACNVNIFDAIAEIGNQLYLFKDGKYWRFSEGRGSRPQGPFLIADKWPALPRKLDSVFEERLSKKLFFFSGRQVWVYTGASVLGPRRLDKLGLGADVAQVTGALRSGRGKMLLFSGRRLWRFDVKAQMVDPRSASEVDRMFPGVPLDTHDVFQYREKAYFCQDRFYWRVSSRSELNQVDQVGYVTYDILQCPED

Molecular target: MMP-2/MMP-9 (Homo sapiens) (UniProt P08253+P14780)
Assay: Selectivity ratio of Ki for human recombinant MMP-9 catalytic domain to Ki for human recombinant MMP-2

## CCOC(=O)Nc1ccc(Oc2ccc(S(=O)(=O)CC3CS3)cc2)cc1 (stereo unspecified)
  Ratio Ki: 2
